According to ChEMBL document CHEMBL5727209, “Treatment of neurodegenerative diseases through inhibition of HSP90” (2019):
This is a selection: effects in other tests are not listed, and their absence says nothing.

Assay: Binding to JNPL3 brain Hsp90: The assay buffer (HFB) contained 20 mM HEPES (K) pH 7.3, 50 mM KCl, 5 mM MgCl2, 20 mM Na2MoO4, 0.01% NP40. Before each use, 0.1 mg/mL bovine gamma globulin (BGG) (Panvera Corporation, Madison, Wis.) and 2 mM DTT (Fisher Biotech, Fair Lawn, N.J.) were freshly added. GM-cy3B, a specific Hsp90 ligand, was synthesized as previously reported (10) and was dissolved in DMSO
In the case of `Nc1nc(F)nc2c1nc(Cc1cc3c(cc1I)OCO3)n2CCNCC1CC1`, the EC50 is reported as 35.6 nM.
With `CC(C)N(C)CCn1c(Cc2cc3c(cc2I)OCO3)nc2c(N)nc(F)nc21` the EC50 was 92.3 nM.
In the case of `CN(CC#N)CCn1c(Cc2cc3c(cc2I)OCO3)nc2c(N)nc(F)nc21`, the EC50 is reported as 107 nM.
For `CC(C)CNCCn1c(Cc2cc3c(cc2I)OCO3)nc2c(N)nc(F)nc21`, the EC50 was 19.6 nM.
With `CCN(C)CCn1c(Cc2cc3c(cc2I)OCO3)nc2c(N)nc(F)nc21` the EC50 was 166 nM.
With `CC(C)NCCn1c(Cc2cc3c(cc2I)OCO3)nc2c(N)nc(F)nc21` the EC50 was 219 nM.
`CC(C)(C)CNCCn1c(Cc2cc3c(cc2I)OCO3)nc2c(N)nc(F)nc21` gave an EC50 of 23.5 nM.
